The source of these data is patent US12612372B2, “Oxopyridazinyl-phenyl-carbonohydrazonoyl dicyanide compound and use thereof” (KOREA INSTITUTE OF SCIENCE AND TECHNOLOGY, priority 2020, dated 2026).

By UniProt entry, the sequences of proteins in these tests, tags left out. Residues count along the entry.
UniProt P10636, 2-441 isoform P10636-8 limits assumed: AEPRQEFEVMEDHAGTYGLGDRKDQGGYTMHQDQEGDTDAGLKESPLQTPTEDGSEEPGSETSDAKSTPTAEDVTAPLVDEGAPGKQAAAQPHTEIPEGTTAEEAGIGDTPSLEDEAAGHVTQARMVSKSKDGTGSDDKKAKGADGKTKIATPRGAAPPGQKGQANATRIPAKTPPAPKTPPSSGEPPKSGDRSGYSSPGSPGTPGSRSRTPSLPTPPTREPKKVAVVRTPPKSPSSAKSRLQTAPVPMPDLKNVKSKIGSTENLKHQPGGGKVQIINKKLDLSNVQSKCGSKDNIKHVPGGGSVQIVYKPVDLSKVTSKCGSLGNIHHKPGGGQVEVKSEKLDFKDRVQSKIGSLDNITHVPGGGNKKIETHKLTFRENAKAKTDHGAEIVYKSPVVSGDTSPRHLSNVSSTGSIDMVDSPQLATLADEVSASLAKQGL

This experiment has as its target T1, tau protein (Homo sapiens, UniProt P10636).
T1 construct: fused on or other part: Split Venus fragments VN173 and VC155, each fused to one copy of tau as BiFC reporter halves
The experiment is described as follows: Tau-BiFC cell model, Forskolin-induced tau protein aggregation. In kind it is cell-based. To be noted: 48 hours. On the procedure:
In order to select novel tau protein aggregation—inhibiting substances, tau-BiFC cell model, in which formation of tau oligomers in living cells is easily observed, was used. Tau-BiFC cells were aliquoted into a 384-well plate. […] After 48 hours, nuclei in the cells were stained using Hoechst (at a treatment concentration of 2 μg/mL), and BiFC fluorescence intensity was automatically measured using Operetta (PerkinElmer) to count stained nuclei in each well out of the entire well plate. […] Furthermore, the degree of cytotoxicity induced by the newly synthesized compound was also measured based on the 100% cell viability of the group treated only with Forskolin as a reference, and the cytotoxicity value of each compound was calculated using the equation “(number of stained nuclei in group treated with compound/number of stained nuclei in group treated with Forskolin)×100”.
After 48 hours, tau protein aggregation reaction and degrees of cytotoxicity were analyzed by observing images of the cells. IC50 and toxicity of the compounds were analyzed by nonlinear regression analysis of Prism software (Graph Pad).

In general, IC50 refers to the midpoint of a concentration-inhibition curve. A high value points to a need for much substance. On to `CC(C)N1N=C(c2ccc(NN=C(C#N)C#N)cc2)CCC1=O` [Example 1, (4-(1-isopropyl-6-oxo-1,4,5,6-tetrahydropyridazin-3-yl)phenyl)carbonohydrazonoyl dicyanide], for which, where the note is “10 μM compound, BiFC fluorescence relative to Forskolin-only group (100% tau protein-aggregated state)”, the “Tau BiFC in cells Response (%, @10 μM)” value stood at 0%. This compound yielded an IC50 (Tau BiFC in cells IC50, tau-BiFC cells, Forskolin 30 μM) of 300 nM.
